Source: patent publication US8124633B2, “Hydroxymethyl ether hydroisoindoline tachykinin receptor antagonists” (Merck Sharp & Dohme Corp., priority 2007, dated 2012)

By UniProt entry, the sequences of proteins in these tests, tags left out.
UniProt P25103, whole entry: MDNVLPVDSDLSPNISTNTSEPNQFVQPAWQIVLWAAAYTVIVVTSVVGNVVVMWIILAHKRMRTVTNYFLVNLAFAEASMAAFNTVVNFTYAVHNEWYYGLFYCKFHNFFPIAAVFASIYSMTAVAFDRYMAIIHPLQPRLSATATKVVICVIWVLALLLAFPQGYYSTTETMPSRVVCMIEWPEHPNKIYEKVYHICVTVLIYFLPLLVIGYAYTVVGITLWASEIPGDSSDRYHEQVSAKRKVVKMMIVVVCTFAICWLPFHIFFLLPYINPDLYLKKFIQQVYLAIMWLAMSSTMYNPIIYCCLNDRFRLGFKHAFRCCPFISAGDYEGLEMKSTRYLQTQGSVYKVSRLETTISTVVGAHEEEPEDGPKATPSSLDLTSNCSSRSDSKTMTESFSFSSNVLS

Target: human neurokinin-1 receptor (NK1R) (Homo sapiens, UniProt P25103)
Assay: Binding assay of human NK1R expressed in COS or CHO cells (125I-substance P competition)
Settings: 125I-substance P binding to human NK1R expressed in COS or CHO cells
Description: Receptor Expression in COS: To express the cloned human neurokinin-1 receptor (NK1R) transiently in COS, the cDNA for the human NK1R was cloned into the expression vector pCDM9 which was derived from pCDM8 (INVITROGEN) by inserting the ampicillin resistance gene (nucleotide 1973 to 2964 from BLUESCRIPT SK+) into the Sac II site. Transfection of 20 ug of the plasmid DNA into 10 million COS cells was achieved by electroporation in 800 ul of transfection buffer (135 mM NaCl, 1.2 mM CaCl2, 1.2 mM MgCl2, 2.4 mM K2HPO4, 0.6 mM KH2PO4, 10 mM glucose, 10 mM HEPES pH 7.4) at 260 V and 950 uF using the IBI GENEZAPPER (1131, New Haven, Conn.). […]
Assay Protocol using COS or CHO: The binding assay of human NK1R expressed in either COS or CHO cells is based on the use of ^125I-substance P (^125I-SP, from DU PONT, Boston, Mass.) as a radioactively labeled ligand which competes with unlabeled substance P or any other ligand for binding to the human NK1R. […] The bound radioactivity was separated from unbound radioactivity by GF/C filter (BRANDEL, Gaithersburg, Md.) which was pre-wetted with 0.1% polyethylenimine. The filter was washed with 3 ml of wash buffer (50 mM Tris pH 7.5, 5 mM MnCl2, 150 mM NaCl) three times and its radioactivity was determined by gamma counter. […] The extracellular radioactivity is removed by washing with phosphate buffered saline. […]

SMILES	IC50 [nM]
Cc1ccccc1[C@H]1[C@@H]2CN(C(=O)N(C)C)C[C@H]2CC[C@@H]1O[C@@H](CO)c1cc(C(F)(F)F)cc(C(F)(F)F)c1	3.1
Cc1ccccc1[C@H]1[C@@H]2CN(C3=CC(=O)CC3)C[C@H]2CC[C@@H]1O[C@@H](CO)c1cc(C(F)(F)F)cc(C(F)(F)F)c1	2.1
